This is an account of results in patent US5688767A, “Treatment of endotoxin-associated disorders with cationic peptides” (priority 1996, dated 1997).

Molecules are shown by their SMILES. Values after ≈ are worked out from the molar mass of the structure shown. Like-named read-outs stand apart in the source and are kept apart here. A value given as a limit tells only on which side of the number the result lay.

For one assay, the system named is P. aeruginosa. It is filed as cell-based, Pseudomonas aeruginosa. The method, then:
(§1) The minimum inhibitory concentrations of (MIC) of CEME, CEMA and melittin were determined for a number of different bacteria (Table 2). Briefly, cells were grown overnight at 37° C. in LB-S (Luria broth without any salt supplement) and diluted one in 10,000 in the same medium to give concentrations of about 10^4 to 10^5 CFU/ml. The broth dilutions were set up in a 96 well microtiter plate by putting 200 μl of LB-S containing the initial concentration of antibiotic or compound in column 1 and 100 μl of the same medium in columns 2-12. The compounds were diluted by taking 100 μl of broth from column 1 and mixing it with column 2, resulting in a one in two dilution. This was continued to column 10. Finally, 10 μl of bacteria were pipetted into columns 1-11, and the plates incubated overnight at 37° C. The next day the plates were scored for growth in the wells, and the MIC determined.
(§2) Bacteria included the Bort strain of E. coli (Bortolussi, et al., Inf. Immun., 25:293, 1979) that was originally derived from a case of neonatal meningitis, and which is therefore considered a relevant pathogenic strain to study, and the 0111:B4 strain of E. coli (kindly provided by Dr. D. Morrison) which is a standard source of endotoxin. (Kelly, et al., Inf. Immun., 59:4491, 1991). In addition, P. aeruginosa PA01 strain H103, P. aeruginosa M2, P. aeruginosa K799, Eschericha coli UB 1005, Enterobacter cloacae 218S, Salmonella typhimurium MS7953s, Klebsiella pneumoniae ATCC 13883, Xanthomonas maltophilia ATCC 13637, and Acinetobacter calcoacetious 8193 were employed. LPS was obtained from E. coli Bort by the technique of Westphal and Jann, (Westphal, et al., Acad. Press, Inc. NY., 5:83) and from P. aeruginosa H103 by the method of Darveau and Hancock, (Darveau, et al., J. Bacteriol, 155:831, […]). E. coli 0111:B4 LPS was purchased from Sigma.

For a further assay, the system named is E. coli. It is filed as cell-based, Escherichia coli. As to the method: as §1, §2
A further assay deals with S. typhimurium. Type of assay: cell-based, Salmonella typhimurium. As to the method: as §1
(§3) Bacteria included the Bort strain of E. coli (Bortolussi, et al., Inf. Immun., 25:293, 1979) that was originally derived from a case of neonatal meningitis, and which is therefore considered a relevant pathogenic strain to study, and the 0111:B4 strain of E. coli (kindly provided by Dr. D. Morrison) which is a standard source of endotoxin. (Kelly, et al., Inf. Immun., 59:4491, 1991). […]

For a further assay, the system named is E. cloacae. It is filed as cell-based, Enterobacter cloacae. The conditions noted are these: strain 218S, Parent of 218R1 (Table 2). As to the method: as §1, §3
Another assay concerns S. aureus. It is filed as cell-based, Staphylococcus aureus. The method, then: as §1
For another assay, the system named is P. AERUGINOSA H309. It is filed as cell-based, Pseudomonas aeruginosa. As to the method:
as §1, with “Briefly,” for “The minimum inhibitory concentrations of (MIC) of CEME, CEMA and melittin were determined for a number of different bacteria (Table 2). Briefly,”

The next assay deals with P. aeruginosa H103 LPS. The assay is described as follows: Dansyl polymyxin (DPx) displacement from purified LPS. The conditions noted are these: 2.5 μM DPx, 3 μg/ml LPS, 5 mM HEPES pH 7.2, average of at least three trials. Type of assay: binding, Pseudomonas aeruginosa. As to the method:
In this assay, DPx was incubated with LPS to saturate the binding sites and then, while polycationic compounds are titrated into the reaction, displacement of the DPx was monitored by the decrease in fluorescence (FIG. 9). P. aeruginosa LPS was isolated as previously described (Darveau, et al., J of Bacteriology, 155:831, 1983) Dansyl polymyxin was synthesized as described by Schindler, et al., B. Antimicrobial Agents and Chemo, 8:95, 1975.
The method of Moore, et al., (Antimicrobial Agents and Chemo., 29:496, 1987), was used to test how much DPx was needed to saturate the binding sties on LPS. Briefly, 5 μl samples of 100 μM DPx were titrated sequentially into 1 ml of 3 μg/ml of LPS until a maximum fluorescence was reached. The fluorescence was measured in a Perkin-Elmer 650-10S fluorescence spectrophotometer with an excitation wavelength of 340 nm and an emission wavelength of 485 nm using slit widths of 5 nm. […] For the binding inhibition assays (Moore, et al., Antimicrobial Agents and Chemo., 29:496, 1987), 2.5 μM DPx was added to 3 μg/ml of H103 LPS in 5 mM HEPES pH 7.2. The test compounds were added 5 μl at a time and the decrease in fluorescence due to displacement of the DPx from the LPS was recorded.
When the data was plotted as a double reciprocal plot (FIG. 10), the X-intercept provided a value that is equal to -1/I50.

Assay [1] deals with P. aeruginosa H309 Whole Cells. The assay is described as follows: DPx binding inhibition using whole cells. On the set-up: species or system Pseudomonas aeruginosa. As to conditions: DPx at 90-100% binding saturation, average of at least three trials. As to the method: For DPx binding inhibition assays using whole cells instead of purified LPS, H309 cells were prepared the same way as for the lysozyme lysis assay. The assay consisted of 10 μl of cells at an OD600 of 0.5, 990 μl of 5 mM HEPES pH 7.2 and 5 mM KCN, and the concentration of DPx that gave 90-100% binding saturation. […] Compounds were titrated in, and I50 values were determined as described above.

`CC[C@H](C)[C@H](NC(=O)CN)C(=O)NCC(=O)N[C@@H](C)C(=O)N[C@H](C(=O)N[C@@H](CC(C)C)C(=O)N[C@@H](CCCCN)C(=O)N[C@H](C(=O)N[C@@H](CC(C)C)C(=O)N[C@H](C(=O)N[C@H](C(=O)NCC(=O)N[C@@H](CC(C)C)C(=O)N1CCC[C@H]1C(=O)N[C@@H](C)C(=O)N[C@@H](CC(C)C)C(=O)N[C@H](C(=O)N[C@@H](CO)C(=O)N[C@@H](Cc1c[nH]c2ccccc12)C(=O)N[C@H](C(=O)N[C@@H](CCCCN)C(=O)N[C@@H](CCCNC(=N)N)C(=O)N[C@@H](CCCCN)C(=O)N[C@@H](CCCNC(=N)N)C(=O)N[C@@H](CCC(N)=O)C(=O)N[C@@H](CCC(N)=O)C(N)=O)[C@@H](C)CC)[C@@H](C)CC)[C@@H](C)O)[C@@H](C)O)C(C)C)C(C)C` [Melittin, melittin]: the MIC in the assay on P. aeruginosa (strain H187, Parent of H188) is 8 µg/mL (≈ 2.81 µM); against P. aeruginosa (strain H188, Antibiotic sensitive) it was 8 µg/mL (≈ 2.81 µM); in the assay on P. aeruginosa (strain H309, Wildtype) it was 8 µg/mL (≈ 2.81 µM); in the assay with E. coli (strain DC2, Polymyxin sensitive) it was 4 µg/mL (≈ 1.41 µM); in the assay with E. coli (strain SC9251, Parent of SC9252) it was 8 µg/mL (≈ 2.81 µM); with E. coli (strain UB1005, Parent of DC2 (Table 2)), 8 µg/mL (≈ 2.81 µM). Moreover, the MIC with S. typhimurium (strain C587, Parent of C590) is 16 µg/mL (≈ 5.62 µM); with S. typhimurium (strain C590, Defensin sensitive), 8 µg/mL (≈ 2.81 µM); in the assay with E. cloacae, 8 µg/mL (≈ 2.81 µM); against S. aureus (strain RN4220, Methicillin sensitive), 8 µg/mL (≈ 2.81 µM); in the assay on S. aureus (strain SAP0017, Methicillin resistant) it was 8 µg/mL (≈ 2.81 µM); in the assay with P. AERUGINOSA H309 (+5 mM Mg^++) it was > 64 µg/mL. Further, the MIC in the assay on P. AERUGINOSA H309 (+80 mM Na^+) came to 16 µg/mL (≈ 5.62 µM); against P. AERUGINOSA H309 (No addition) it was 8 µg/mL (≈ 2.81 µM). The “I50, Value in μg/ml” value at P. aeruginosa H103 LPS is 8.48 ± 1.44 µg/mL; in assay [1] it was 1.37 ± 0.22 µg/mL. Besides, the IC50 was found to be 2.97 ± 0.506 µM at P. aeruginosa H103 LPS (read-out: I50, Value in μM) and 0.48 ± 0.08 µM in assay [1] (read-out: I50, Value in μM).

The MIC is the smallest concentration in the dilution series that meets the test's criterion for growth inhibition.
